According to PubChem BioAssay AID1777 (Sanford-Burnham Center for Chemical Genomics, 2009):
The list shows a part of the results. Entries with a potency or affinity are not part of this list. Activity calls are given as the source filed them. No stated cut-off is given here; in the data, active means activation above about 50% (passing the limit was not always enough); inactive means the rest.

The chains behind the UniProt entries cited, without tags or fusion partners. Where a name states a change or a piece, a line headed by the entry shows the natural chain unless it says otherwise.
UniProt P41145: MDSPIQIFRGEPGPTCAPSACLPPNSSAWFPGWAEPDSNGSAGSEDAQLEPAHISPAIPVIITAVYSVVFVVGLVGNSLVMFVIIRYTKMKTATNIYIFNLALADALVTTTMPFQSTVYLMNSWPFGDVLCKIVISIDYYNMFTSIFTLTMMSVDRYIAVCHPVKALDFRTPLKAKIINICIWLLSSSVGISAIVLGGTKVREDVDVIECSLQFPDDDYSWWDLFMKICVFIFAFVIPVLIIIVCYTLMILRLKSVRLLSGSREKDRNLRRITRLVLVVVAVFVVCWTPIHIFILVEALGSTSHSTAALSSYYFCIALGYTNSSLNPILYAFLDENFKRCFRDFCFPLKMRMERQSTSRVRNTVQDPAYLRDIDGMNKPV

Biological target: Kappa-type opioid receptor (Homo sapiens) (UniProt P41145)
Assay: kappa opioid receptor activators – cell-based, luminescence, uHTS, primary screen (AID 1777)
Details: KOR beta-arrestin recruitment, at 10 µM, stronger effect = higher value

Compound	activation
Nc1ncnc2c1ncn2CCN1CCCCC1	inactive: 4.8%
Cc1c2non([O-])c-2c(C)[n+](=O)[n+]1[O-]	inactive: 0.6%
O=C(Cn1c(CO)nc2ccccc21)NCCc1ccc(F)cc1	inactive: -0.8%
CC(C)[C@H](NC(=O)N1CCn2c1nc1ccccc12)C(=O)NCC1CCCO1 (some centres undefined)	inactive: 0.8%
Cc1ccc(-c2csc(N3CCN(c4cc5c(cc4Cl)nc(-c4ccncc4)n5CCN4CCCCC4)CC3)n2)cc1	inactive: 1.2%
O=C(NC(Sc1ccncn1)C(Cl)(Cl)Cl)c1ccccc1 (centres undefined)	inactive: 0.2%
Oc1ccccc1CNc1ccccn1	inactive: 1.1%
CCC(=O)N1c2ccc(S(=O)(=O)CCC(=O)N3CCn4c3nc3ccccc34)cc2CC1C (centres undefined)	inactive: 7.6%
COCCN1CCn2c(nc3cc([N+](=O)[O-])ccc32)C1	inactive: -3.6%
Cc1ccccc1C(=O)Nc1cccc(NC(=O)Cn2cnc3c(=O)n(C)c(=O)n(C)c32)c1	inactive: -0.8%
CC(C)CC(=O)NC(Sc1ccc(Cl)cc1)C(Cl)(Cl)Cl (centres undefined)	inactive: -0.4%
N=c1n(CCOc2ccccc2)c2ccccc2n1CCN1CCOCC1	inactive: -10.2%
CSCC[C@H](NC(=O)N1CCn2c1nc1ccccc12)C(=O)NCc1ccc(C)cc1	inactive: -1.2%
Nc1cc(N)c2nonc2c1[N+](=O)[O-]	inactive: -2.5%
O=C(Nc1nc2ccccc2n1CCN1CCOCC1)c1ccc(Cl)cc1	inactive: 6.5%
CCCCCCNCCn1cnc2c(N)ncnc21	inactive: -0.1%
CCc1cccc(CC)c1NC(=O)Cn1c(-c2ccccc2Cl)nc2ccccc21	inactive: 0.1%
COCCCNC(=O)CC1C(=O)N(Cc2ccccc2)C(C)c2nc3ccccc3n21 (centres undefined)	inactive: -3%
O=C1Cn2c(nc3ccccc32)N1c1ccccc1F	inactive: -2.8%
N=c1n(CCCOc2ccc(F)cc2)c2ccccc2n1CC(N)=O	inactive: -0.5%
Cc1n[nH]c(C)c1CCC(=O)N/N=C/C=C/c1ccccc1	inactive: -1.2%
COc1cccc(/C=N/NC(=O)Cn2cnc3c2c(=O)n(C)c(=O)n3C)c1OC	inactive: -1%
CCC(=O)Nc1ccc2c(c1)nc1n2CCN(CCOC)C1	inactive: 0%
CCCCNc1nc2ccccc2n1CC(=O)N1CCc2ccccc2C1	inactive: 1%

Compound	activation
C=CCOC(=O)C1=C(C)N=C2SCCC(=O)N2C1/C=C/c1ccccc1OC (centres undefined)	inactive: 12.6%
Cc1nc2ccc(NC(=O)Cn3cnc4c3c(=O)n(C)c(=O)n4C)cc2s1	inactive: -3.4%
CC1CCCC(C)N1C(=O)Cn1c(SCC(=O)NCc2ccc3c(c2)OCO3)nc2ccccc21 (centres undefined)	inactive: -3.5%
O=C(Cn1c(-c2cscn2)nc2ccccc21)Nc1ccc(Cl)cc1	inactive: -3.9%
CCCn1c(=O)[nH]c(=O)c2c1nc(-c1ccccc1)n2CCN1CCOCC1	inactive: 7.9%
CCCCC(=O)N/N=C(C)/C=C/c1ccccc1F	inactive: 1.3%
CCN(CC)CCn1c(/N=C/c2cc(Br)ccc2O)nc2ccccc21	inactive: -1.5%
Cn1c(=O)c2ncn(CC(=O)NCCC3=CCCCC3)c2n(C)c1=O	inactive: -9.4%
CCOc1ccc(C(O)Cn2c(=N)n(CCN3CCCCC3)c3ccccc32)cc1 (centres undefined)	inactive: 2.4%
Cc1ccc(C(=O)NC(C)c2nc3ccccc3n2CC(=O)Nc2c(C)cc(C)cc2C)cc1 (centres undefined)	inactive: 0.4%
CC(O)c1nc2ccccc2n1CC(=O)N1CCN(c2ccccc2)CC1 (centres undefined)	inactive: 1%
CCOCN(C(=O)Cn1c(C(C)O)nc2ccccc21)c1c(C)cccc1CC (centres undefined)	inactive: -4.3%
Cc1ccc(N/C(=N/P(=O)(N2CCOCC2)N2CCOCC2)N2CCOCC2)cc1	inactive: -2.6%
O=C(CSc1nc2ccccc2n1CC(=O)N1CCCCC1)N1CCCCC1	inactive: 1.7%
NC(=O)c1cc([N+](=O)[O-])cc([N+](=O)[O-])c1N	inactive: 3.4%
CC1CCCN(C(=O)Cn2c(-c3nonc3N)nc3ccccc32)C1 (centres undefined)	inactive: 15%
O=C(Nc1ccccc1)N1CCC(n2c(=O)[nH]c3ccccc32)CC1	inactive: -0.6%
Cc1ccc2c(c1)C1CN(C)CCC1N2C(=O)c1ccc(Cl)c(S(=O)(=O)N2CCOCC2)c1 (centres undefined)	inactive: 4.1%
Nc1nonc1-c1nc2ccccc2n1CC(=O)N/N=C\c1ccc(-c2ccc(Cl)cc2)o1	inactive: 5.6%
Cc1ccc(-c2csc(N3CCN(c4ccc5nc(-c6ccncc6)n(CCN6CCCCC6)c5c4)CC3)n2)cc1	inactive: -2.9%
CCC(C(=O)NC1CCCCC1)n1c(SCc2ccc(F)cc2)nc2ccncc21 (centres undefined)	inactive: -0.1%
CN(C)C(=O)Cn1c(SCC(=O)Nc2ccc3c(c2)OCO3)nc2ccccc21	inactive: -7%
Cc1ccc(/C=N/NC(=O)Cn2cnc3ccccc32)cc1	inactive: -1.4%
O=C(Cn1c(NCCO)nc2ccccc21)NCCc1ccccc1	inactive: 7.7%

Compound	activation
Clc1ccc(Cl)c(NC2=NCC(CBr)S2)c1 (centres undefined)	inactive: 6%
CN1CCCC(OC(=O)C(c2ccccc2)c2ccccc2)C1 (centres undefined)	inactive: 4.9%
COc1ccc(CNC(=O)CCCCCNC(=O)N2CCn3c2nc2ccccc23)cc1	inactive: -0.5%
CCOc1cc(N2CCOCC2)c(OCC)cc1NC(=O)Cn1cnc2c(=O)n(C)c(=O)n(C)c21	inactive: 0.5%
O=C1Cn2c(nc3ccccc32)N1c1cccc(C(F)(F)F)c1	inactive: 4%
COc1ccc(C(=O)CSc2nc3ccccc3n2CC(=O)NC(C)(C)C)cc1	inactive: 0.4%
Cc1ccc(OP(=O)(Nc2nccs2)Oc2ccc(C)cc2)cc1	inactive: -1%
CCC(C)(C)n1nnnc1CN1CCC(n2c(C)nc3cc(C(F)(F)F)ccc32)CC1	inactive: 3.5%
Cc1nc2cc(F)ccc2n1C1CCN(Cc2nnnn2CCc2ccccc2)CC1	inactive: 11%
CN1CCN(CCN2CCn3c2nc2ccccc23)CC1	inactive: -0.4%
O=C(Nc1ccc2c(c1)nc1n2CCN(Cc2ccccc2)C1)c1cccs1	inactive: 8.2%
O=C(CCC(=O)Nc1ccccc1)N/N=C/C=C/c1ccccc1	inactive: -1.7%
CC1CN(Cc2nc3c(c(=O)[nH]c(=O)n3C)n2CCN2CCOCC2)CC(C)O1 (centres undefined)	inactive: 1%
Cn1c(=O)c2c(ncn2CC(N)=O)n(C)c1=O	inactive: 1.4%
O=C(Cn1c(-c2cncs2)nc2ccccc21)NCc1ccccc1	inactive: 0.5%
O=[N+]([O-])c1cc([N+](=O)[O-])c(CCN2CCOCC2)c([N+](=O)[O-])c1	inactive: -4.9%
COc1ccc(N2C(=O)CC(n3c(CCCCO)nc4ccccc43)C2=O)cc1 (centres undefined)	inactive: -1.8%
O=C(NCCn1c(C(F)(F)F)nc2ccccc21)[C@H]1CCCN1c1nc(CN2CCCCC2)cs1	inactive: -0.4%
COc1ccc(CC(=O)N2CCC(Nc3nc4ccccc4n3Cc3ccc(F)cc3)CC2)cc1	inactive: 1.3%
O=C(Cn1c(COc2ccccc2)nc2ccccc21)Nc1cc(Cl)ccc1Cl	inactive: 5.5%
Cc1ccccc1NC(=O)Cn1cnc2c1c(=O)n(C)c(=O)n2C	inactive: 3.6%
COc1ccc(CCNC(=O)Cn2c(-c3nonc3N)nc3ccccc32)cc1OC	inactive: 1.4%
CC(C)NC(=O)Cn1c(SCC(=O)N2CCCCCC2)nc2ccccc21	inactive: -2.8%
CC(C)C[C@H](NC(=O)N1CCn2c1nc1ccccc12)C(=O)N1CCCCC1	inactive: 1.7%

Compound	activation
CC(C)CSc1nc2ccccc2n1CC(N)=O	inactive: -9.7%
Nc1ncnc2c1ncn2C1OC(CO)C(O)C1N (centres undefined)	inactive: 2%
CC1CCCCN1C(=O)CSc1nc2ccccc2n1CC(=O)N1CCc2ccccc21 (centres undefined)	inactive: -6.6%
Cn1c(=O)n(CC(=O)NCc2cccnc2)c2ccccc21	inactive: -0.7%
O=C(Cn1c(SCC(=O)N2CCc3ccccc3C2)nc2ccccc21)NC1CCCC1	inactive: -2.3%
O=C(CCCCCNC(=O)N1CCn2c1nc1ccccc12)N[C@@H](Cc1ccccc1)C(=O)O	inactive: -2%
Cn1c(=O)c2c(nc(NCc3ccccc3)n2CC(=O)NCc2ccccc2)n(C)c1=O	inactive: 3%
O=C(Cn1cnc2ccccc21)Nc1cccc([N+](=O)[O-])c1	inactive: -0.7%
Nc1cccc2ccc([As](=O)(O)O)cc12	inactive: 2.8%
CCN(CC)CCn1c(=N)n(CCOc2ccccc2)c2ccccc21	inactive: 1.5%
CC(C)(C)NC(=O)Cn1c(SCC(=O)NC2CCCC2)nc2ccccc21	inactive: -1.4%
CCN(N=Nc1nonc1N)c1nonc1N	inactive: -2.8%
CCN(CC)CCNC(=O)Cn1c(-c2ccccn2)nc2ccccc21	inactive: 2%
CCC(=O)Nc1nnc(/C=C/c2ccc(OC)cc2)s1	inactive: 5.5%
Nc1nonc1-c1nc2ccccc2n1CC(=O)Nc1ccccc1	inactive: -3%
CC(=O)c1ccc(NC(=O)C2CC(=O)Nc3nc4ccccc4n32)cc1 (centres undefined)	inactive: 1%
COC(=O)C1=C(C)N=C2SCCC(=O)N2C1/C=C/c1ccccc1 (centres undefined)	inactive: 6.4%
CC1CCN(C(=O)Cn2c(SCC(=O)Nc3nccs3)nc3ccccc32)CC1	inactive: 5%
CCOC(=O)c1ccccc1NC(=O)Cn1c(-c2nonc2N)nc2ccccc21	inactive: -0.9%
CC(C)NC(=O)CC1C(=O)N(Cc2ccccc2)C(C)c2nc3ccccc3n21 (centres undefined)	inactive: -1.2%
C(=N\c1nc2ccccc2n1CCN1CCCCC1)/c1ccc2c(c1)OCO2	inactive: 4.4%
O=P(Nc1nc2ccc(Cl)cc2s1)(c1ccccc1)c1ccccc1	inactive: -0.8%
